# Measured affinities in a library of Ab-95 light chain variants

Antigen: PDVDLGDISGINAS, a 14-residue peptide of the SARS-CoV-2 spike HR2 region.

Parent scFv Ab-95: VH joined to VL by three GGGGS repeats. Changes lie in the light chain CDRs alone.
VH: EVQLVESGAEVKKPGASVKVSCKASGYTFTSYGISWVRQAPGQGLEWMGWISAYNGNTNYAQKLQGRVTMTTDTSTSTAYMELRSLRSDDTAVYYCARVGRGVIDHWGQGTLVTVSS
VL: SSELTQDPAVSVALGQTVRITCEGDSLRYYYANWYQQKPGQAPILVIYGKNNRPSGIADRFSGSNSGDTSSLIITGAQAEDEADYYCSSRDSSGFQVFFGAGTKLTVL

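AAYL52 was designed without a model: most single CDR substitutions and a random sample of double and triple ones. The scFvs were displayed on barcoded MATa yeast, the peptide on MATalpha yeast. Binding brings cells together so that they mate, and sequencing counts the barcode pairs among the diploids. Each replicate has its own calibration line, from reference interactions of the BCL2 family. Each pool was mated in three replicate cultures.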

Variants are written as CDR1, CDR2 and CDR3 of the light chain (limits as in the source). Parent: EGDSLRYYYAN, GKNNRPS, SSRDSSGFQVF.
Values are log10 of the apparent Kd in nM; lower means stronger binding.
Averages over replicates are reported, and they cover detected replicates only.
"nd" marks a missing value. The strain was present, yet no cells mated with the target were sequenced in that replicate, which points to weak or no binding.

CDR-L1	CDR-L2	CDR-L3	replicates, log10 nM	mean log10 Kd (nM)	control signals
EGDSLRYYYAI	GKNNRPS	SSRDGSFFQVF	nd nd nd	nd	0/9
EGDSLRYYYAV	KMNNRPS	SSRDSSGFQVF	nd 4.78 4.06	4.42	2/9 (3.24)
EGDSLRYYYAN	GTNIRPS	SSRDSSGFQVT	3.29 3.01 2.74	3.01	2/9 (3.87)
NGDSLRYYYAN	DKNNRPS	SSRDSSGAQVF	2.28 2.11 1.92	2.11	1/9 (3.56)
EWDSLLYYYAN	GKNNRWS	SSRDSSGFQVF	nd 3.25 nd	3.25	0/9
EGDSLPYYYAN	KKNVRPS	SSRDSSGFQVF	nd 4.28 4.67	4.48	4/9 (4.40)
EFWSLRYYYAN	GKNNTPS	SSRDSSGFQVF	3.42 3.61 3.37	3.47	6/9 (4.28)
EGDSLRYYYAN	CKYNRPS	SSRDSSGFQKF	nd nd nd	nd	3/9 (3.93)
EGCSLRYYYAF	GKNNRPC	SSRDSSGFQVF	nd 4.86 nd	4.86	3/9 (3.92)
EGDSLVYYYAV	GKNNRPK	SSRDSSGFQVF	3.46 3.19 2.44	3.03	1/9 (3.23)
EGDSLRTYYAN	GKNDRPS	SSRDSWGFQVF	2.99 3.87 3.06	3.31	6/9 (3.77)
EGDCLRYYQAN	GKNARPS	SSRDSSGFQVF	3.83 2.45 2.61	2.96	3/9 (3.82)
EGDSLRYDYAN	GKNNRPS	SSRDSYGFQVF	1.79 1.41 1.51	1.57	0/9
EGDLIRYYYAN	GKNNRPS	SSIDSSGFQVF	nd nd nd	nd	0/9
EGDSLRYYDAN	GKKNRPS	SSRDSSGFQVF	1.87 1.57 1.11	1.52	7/9 (3.95)
EKDSLRYYYAN	GKNFRPS	SSRDSSGFQVF	3.79 2.83 4.48	3.70	4/9 (4.10)
EGDSLRYFYAN	GANNRPN	SSRDSSGFQVF	2.60 2.44 3.22	2.76	5/9 (4.52)
EGDSLRYYYAN	GKNNQPS	SSRDMIGFQVF	3.82 3.46 nd	3.64	3/9 (3.59)
EGDSLRYYYAR	GKNNRPS	SSIDSSGFQQF	nd nd nd	nd	2/9 (4.14)
EGDSLLYYYAN	GKSNRPS	SSRDSSDFQVF	5.29 2.82 nd	4.05	2/9 (3.96)
EGDLLRYYYAN	GKNNRPS	SSRDSSDFQAF	3.30 3.66 nd	3.48	1/9 (4.89)
EGDSLRYYYAN	GKNNRPF	SWRDSRGFQVF	nd nd nd	nd	0/9
EGTSLRSYYAN	GKNNRPS	SSRDSSHFQVF	nd 5.17 3.21	4.19	5/9 (4.28)
EGDSIRYIYAN	GKNNRPS	SSRDSSGFQQF	nd nd nd	nd	4/9 (4.39)
EGDSLRYYYQN	GKNNWPT	SSRDSSGFQVF	nd nd nd	nd	0/9
DGDSLRYYYAN	GKNNRPG	SSRDSSGFQVF	1.55 1.69 1.18	1.47	4/9 (4.21)
EGDSLRHPYAN	GKNKRPS	SSRDSSGFQVF	2.83 2.97 2.66	2.82	1/9 (4.07)
GGDSLGYYYAN	GKNNRPS	LSRDSSGFQVF	3.33 2.73 2.22	2.76	3/9 (3.55)
EGDSLRYYYAN	GKNAEPS	SCRDSSGFQVF	3.43 3.36 4.61	3.80	1/9 (3.38)
EGDSLRYYYAN	GKKNRPS	SSRDSSGDFVF	3.63 nd 4.06	3.85	5/9 (3.92)
EGDSLMYGYAN	GKNNRPS	SSRDSSGLQVF	1.94 2.16 1.84	1.98	2/9 (4.01)
IGDSLRYYYAN	GKNGRPS	SSRDSSKFQVF	3.61 nd nd	3.61	2/9 (3.53)
EGDSLREYAAN	GKNNRPS	SSRDSSGFQVF	1.20 1.02 0.80	1.01	2/9 (3.94)
EGDSLRYYYAN	GKKNRPS	SSPDSSGQQVF	3.92 3.16 nd	3.54	6/9 (4.04)
EADSARYYYAN	GKNNRPS	SSRDSSGFQVF	3.16 3.09 nd	3.13	2/9 (4.53)
QGDSLRYTYAN	GKNNRPS	SSRDSSGFQAF	nd 3.96 nd	3.96	1/9 (4.22)
EGDSLRYYYAN	GKLNRPS	SSRDSVGFMVF	3.50 4.00 3.73	3.74	2/9 (4.28)
EGDSLEYYYAN	GKNNRPS	SIRDSSGFLVF	2.33 2.51 2.66	2.50	4/9 (4.32)
EPDSLRYYYAN	GKNNRPS	SSRFWSGFQVF	nd 2.80 nd	2.80	3/9 (4.42)
EGDYLRYYYAN	GKNNRPS	SSRDSSNFQVN	3.16 3.35 3.65	3.39	3/9 (4.06)
EGLSLRYYYAN	GKNNTPS	SSRDSSGFKVF	3.27 nd 4.08	3.68	4/9 (4.17)
EGDSLRYYYAN	GKNNYPY	SSRDSSGFQFF	nd nd nd	nd	4/9 (4.16)
NPYSLRYYYAN	GKNNRPS	SSRDSSGFQVF	4.31 5.06 nd	4.69	4/9 (4.44)
EGDSLRYYYAN	GKNNRPS	SSRDSSGMQVT	2.32 2.23 2.51	2.35	1/9 (4.04)
EGDVLRYYYGN	GKNNRPS	QSRDSSGFQVF	3.61 2.06 2.62	2.76	5/9 (4.38)

Three control strains display no target. For library AAYL52, 28% of the pairings with them gave a signal, with a median of 3.91 and one signal in twenty below 2.90, so weak values seen in few replicates may be background. For each scFv, signals with the empty controls are counted beside the result, with their mean in brackets.
Parent in this assay: reference entry 2.31, copy in this library 2.25.

Reference: Engelhart et al. 2022, doi:10.1038/s41597-022-01779-4. File: FLAb, binding data.